The experiment has as its target RORc ligand binding domain (Homo sapiens (Human), UniProt P51449). The experiment is described as follows: In vitro RORc Ligand Binding Assay. Particulars: displacement of 6 nM 25-[3H]hydroxycholesterol; 0.6 ug/mL RORc receptor; 3 h at 25° C. As for the experimental part: In vitro RORc Ligand Binding Assay
This assay was used to determine a compound's potency in inhibiting activity of RORc by determining, Kiapp, IC50, or percent inhibition values.
On day of the assay, 100 uL of 0.05% CHAPS (in deionized H2O) was added to all wells of the GFB Unifilter plate and allowed soak for 1 h. A wash buffer of 50 mM HEPES (pH 7.4), 150 mM NaCl, and 5 mM MgCl2 was prepared to wash the filter plate. To prepare an assay buffer, BSA was added to the wash buffer to reach 0.01% and DTT was added to reach 1 mM.
The 20× compound stocks were diluted in DMSO with Assay Buffer 4-fold to reach 5× the final test concentration in 25% DMSO (10 uL compound+30 uL Assay Buffer). Solutions were mixed by aspiration several times with a pipette set on 50 uL volume. For the assay, 10 uL of 5× compound stock solutions in 25% DMSO were added to the assay plate in duplicate.
For 25-hydroxycholesterol in 25% DMSO/75% Assay Buffer; 10 uL per well was used for NSB samples. Wells for Total Binding and No Receptor sample determination contained 10 uL of 25% DMSO/75% Assay Buffer per well.
Add 20 uL to all wells to reach 6 nM final concentration in the assay. […]
Using a Packard Filtermate Harvester, the filter plate were washed 4 times following transfer of the incubated samples. […] 50 uL Microscint 0 was added to all wells and read on Topcount protocol Inverted. […]

Protein sequences, listed by entry. Tags and fused reporters are not part of them. Residues count along the entry.
UniProt P51449, 269-508, species assumed: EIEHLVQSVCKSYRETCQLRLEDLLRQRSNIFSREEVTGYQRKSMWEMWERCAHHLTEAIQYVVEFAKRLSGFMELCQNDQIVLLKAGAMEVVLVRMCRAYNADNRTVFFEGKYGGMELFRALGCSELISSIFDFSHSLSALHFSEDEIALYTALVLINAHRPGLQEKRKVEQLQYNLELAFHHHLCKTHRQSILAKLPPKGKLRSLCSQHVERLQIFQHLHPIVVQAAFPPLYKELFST

The IC50 is the point on the concentration scale where inhibition reaches its midpoint. A high value points to lower potency. `CC(C)CN(Cc1ccccc1)S(=O)(=O)c1ccc(-c2ccc(NS(C)(=O)=O)cc2)cc1` [Compound 6, 4′-Methanesulfonyl-amino-biphenyl-4-sulfonic acid benzyl-isobutyl-amide] had an IC50 of 4.3 µM.

The values are drawn from patent US9302985B2, “Benzyl sulfonamide derivatives as RORc modulators” (Genentech, Inc., priority 2012, dated 2016).
